From article PMC10175095 (Therapeutic drug monitoring, 2023)

Columns and labels:
[1] = Pre-processed stability in human plasma; format: in vitro ADME; conditions: 2.5 h
[2] = Reinjection stability in final extract; format: physicochemical; conditions: reinjected, 4°C, autosampler, 25.95 h
[3] = Processed sample stability in final extract; format: physicochemical; conditions: 4°C, autosampler, 25.1 h
[4] = Freeze-thaw stability of unprocessed plasma samples; format: in vitro ADME; conditions: human plasma, 3 freeze (-80°C)-thaw cycles, nominal 15 ng/mL
[5] = Long-term stability of unprocessed plasma samples at −80°C; format: in vitro ADME; conditions: human plasma
[6] = RT (20–25°C), yellow light, nominal 1500 ng/mL

CCN1CCN(Cc2ccc(Nc3ncc(F)c(-c4cc(F)c5nc(C)n(C(C)C)c5c4)n3)nc2)CC1 [Abemaciclib, abemaciclib]
Accuracy vs. nominal concentration ([1]; 37°C, dark, nominal 15 ng/mL): 103%
Accuracy vs fresh QCs ([1]; 37°C, dark, nominal 1500 ng/mL): 103%
Accuracy vs. nominal concentration ([1]; 37°C, dark, nominal 1500 ng/mL): 102%
Accuracy vs. nominal concentration ([1]; RT (20–25°C), yellow light, nominal 15 ng/mL): 105%
Accuracy vs fresh QCs [1, 6]: 105%
Accuracy vs. nominal concentration [1, 6]: 103%
Accuracy vs. nominal concentration ([2]; nominal 150 ng/mL): 104%
Accuracy vs. nominal concentration ([2]; nominal 1500 ng/mL): 102%
Accuracy vs. nominal concentration ([3]; nominal 15 ng/mL): 106%
Accuracy vs. nominal concentration ([3]; nominal 1500 ng/mL): 101%
Accuracy vs fresh QCs [4]: 103%
Accuracy vs. nominal concentration [4]: 101%
Accuracy vs. nominal concentration ([5]; 3 months, nominal 15 ng/mL): 97.8%
Accuracy vs. nominal concentration ([5]; 3 months, nominal 150 ng/mL): 99.3%
Accuracy vs. nominal concentration ([5]; 3 months, nominal 1500 ng/mL): 95.8%
Accuracy vs fresh QCs ([5]; 7 months, nominal 15 ng/mL): 112%
Accuracy vs. nominal concentration ([5]; 7 months, nominal 15 ng/mL): 93.8%
Accuracy vs. nominal concentration ([5]; 7 months, nominal 150 ng/mL): 104%
Accuracy vs. nominal concentration ([5]; 7 months, nominal 1500 ng/mL): 96.2%
Accuracy vs fresh QCs ([5]; 12 months, nominal 15 ng/mL): 112%
Accuracy vs. nominal concentration ([5]; 12 months, nominal 15 ng/mL): 102%
Accuracy vs. nominal concentration ([5]; 12 months, nominal 1500 ng/mL): 106%
